Assay results published in paper PMC3676766, “New Radioligands for Describing the Molecular Pharmacology of MT1 and MT2 Melatonin Receptors” (International Journal of Molecular Sciences, 2013).

Sequences of proteins named here, by UniProt entry; tags and fusion partners are left off.
UniProt P49286, whole entry: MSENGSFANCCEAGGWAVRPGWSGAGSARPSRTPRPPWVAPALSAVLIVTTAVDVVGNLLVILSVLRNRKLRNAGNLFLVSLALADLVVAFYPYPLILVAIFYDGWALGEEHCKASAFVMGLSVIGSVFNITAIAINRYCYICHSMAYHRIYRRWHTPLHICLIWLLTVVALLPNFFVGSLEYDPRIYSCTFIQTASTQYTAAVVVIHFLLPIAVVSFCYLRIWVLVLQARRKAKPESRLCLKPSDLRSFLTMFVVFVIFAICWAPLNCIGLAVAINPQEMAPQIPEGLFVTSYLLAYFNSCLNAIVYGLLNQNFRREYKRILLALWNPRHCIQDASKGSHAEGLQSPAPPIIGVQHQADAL

Biological target: hMT2 (Homo sapiens, UniProt P49286)
Assay: Saturation binding of iodinated radioligands, CHO-K1-hMT2 membranes
Conditions: saturation 0.01–2 nM radioligand, Scatchard

**Q.** COc1cc([125I])c(Cc2cc(OC)c(OC)cc2CC(=O)OC(C)(C)C)cc1OC was tested. Which pKd did it give?
**A.** 9.65 ± 0.07
